# Antibody variant affinities, Ab-14 light chain, assay B

The measurements come from Li et al. 2023 (doi:10.1038/s41467-023-39022-2) through the FLAb antibody collection.

Binding partner: SARS-CoV-2 spike HR2 peptide, sequence PDVDLGDISGINAS.

Ab-14 is the parent antibody, in scFv form: VH, then the linker GGGGSGGGGSGGGGS, then VL. The heavy chain is unchanged in all variants.
VH: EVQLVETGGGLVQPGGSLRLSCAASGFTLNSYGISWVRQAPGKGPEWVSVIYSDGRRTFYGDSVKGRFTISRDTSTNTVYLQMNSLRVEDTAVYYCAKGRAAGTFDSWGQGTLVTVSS
VL: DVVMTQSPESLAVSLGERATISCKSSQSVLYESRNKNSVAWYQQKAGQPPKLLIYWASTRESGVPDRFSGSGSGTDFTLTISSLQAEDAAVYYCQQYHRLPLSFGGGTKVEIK

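Designed CDR sequences, proposed from the first random library and measured here. Their group label is 14L_En_HC (En: ensemble of fine-tuned language models; HC: hill climbing; a sequence that several methods proposed may carry one label only). The assay is AlphaSeq: two haploid yeast populations carry antibody and antigen on their surface. Pairs that bind mate more often; barcode pairs of the diploids are counted by sequencing. The ratio of observed to expected reads was calibrated, replicate by replicate, on BCL2-family standards whose Kd was known from biolayer interferometry. The assay was run in six technical replicates.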

Variants are written as CDR1, CDR2 and CDR3 of the light chain (limits as in the source). Parent: KSSQSVLYESRNKNSVA, WASTRES, QQYHRLPLS.
Values are log10 of the apparent Kd in nM; lower means stronger binding.
Averages over replicates are reported, and they cover detected replicates only.
"n.d." marks a missing value. The strain was present, yet no cells mated with the target were sequenced in that replicate, which points to weak or no binding.
As a blank, each scFv also met three strains without target: over all light chain designs, 4% of these pairings were detected, typically at 2.64 and seldom below 1.59. Also given: how often the same scFv was detected with the empty control strains, with their mean in brackets.

CDR-L1 | CDR-L2 | CDR-L3 | log10 Kd, replicates | log10 Kd (nM), mean | signal with controls
KLGQMTAIESHNLNSVA | QMDTRES | QQYDRLPLS | 1.14 / 0.93 / 1.07 / 0.62 / 0.63 / 0.67 | 0.84 | 1/18 (1.69)
KISQTFNVGTKNKNSLA | EMSTREF | QDYHRLPLS | 1.99 / 0.99 / 1.52 / 1.38 / 1.39 / 1.36 | 1.44 | 1/18 (2.13)
KLSQATRMESRNKASVA | ENSTRGE | QQYFRLPLS | -0.02 / 0.08 / -0.12 / -0.25 / 0.09 / -0.01 | -0.04 | 1/18 (3.93)
NITESMYFQSRNKNNIA | EMSTRER | QHYHRLPLS | 0.53 / 0.24 / 0.49 / 0.24 / 0.07 / 0.47 | 0.34 | 2/18 (2.03)
TLSQSMDMTSKNVNSVA | DLTTRGN | QQYHRLPLS | 0.00 / 0.49 / 0.29 / 0.49 / 0.04 / 0.45 | 0.29 | 0/18
IFSQSVLMGNMKRNSVA | QASTRFN | QQYDRLPLI | 1.45 / 0.75 / 0.66 / 0.58 / 0.64 / 0.73 | 0.80 | 0/18
KIAQSMAITSHHINSVA | QSTTREE | QQYNHLPLS | 0.74 / 0.59 / 0.79 / 0.80 / 0.43 / 0.71 | 0.68 | 1/18 (2.83)
TISQSWLYESFNKNNVA | EMSTREN | QDYDRLPLS | 0.16 / 0.26 / 0.04 / 0.05 / 0.02 / 0.05 | 0.10 | 2/18 (3.11)
TISQSAHMESHNKDNVA | DLNTRGQ | QQYDRLPLS | 1.39 / 1.23 / 1.09 / 0.75 / 1.59 / 1.36 | 1.24 | 1/18 (2.19)
KLYQSVAMTSANKNNVA | DLNERER | QQYHRLPLS | 0.47 / -0.14 / -0.24 / -0.59 / -0.37 / 0.04 | -0.14 | 1/18 (0.74)
HLADTVMQGSYYRNSVA | QESTRAD | QQYHHLPLS | 0.58 / 0.35 / 0.32 / 0.25 / 0.23 / 0.48 | 0.37 | 1/18 (3.50)
ILGDSVLTLSRNKNSVA | DNSTRES | QQYDRLPLS | 1.32 / 0.86 / 0.59 / 1.06 / 0.92 / 0.90 | 0.94 | 0/18
KIGHGLTTESYNKNSVA | QTETRVS | QHYHRLPLS | n.d. / n.d. / 1.82 / n.d. / n.d. / n.d. | 1.82 | 0/18
TLSQSWGMESHHRNNVA | QESTREK | QQYFRLPIS | 0.93 / 0.90 / 0.56 / 0.36 / 0.63 / 0.85 | 0.70 | 1/18 (2.66)
MLSDLVKMGSRNYNSVA | DNSTRGS | QQYDRLPLS | 2.57 / 2.27 / 1.74 / n.d. / 2.64 / 2.38 | 2.32 | 1/18 (2.47)
KLTEMFQHTSKQKNNIA | ERSTREE | QQYHHLPLS | 0.39 / 0.56 / 0.28 / 0.15 / 0.11 / 0.23 | 0.29 | 0/18
KIGQQVTYESTAKNAIA | QMTTREE | QQYHRLPLS | 0.44 / 0.23 / 0.06 / 0.02 / 0.22 / 0.37 | 0.22 | 0/18
KISSLTLYESVQKNNVA | EMSTRPS | QSYHRLPLS | 0.93 / 0.50 / 0.55 / 0.79 / 0.54 / 0.83 | 0.69 | 4/18 (2.72)
IITQSVMQESRNKSNVA | NTSERES | QQYNRLPLI | 0.50 / 0.54 / 0.48 / 0.96 / 1.46 / 1.09 | 0.84 | 1/18 (1.69)
KLSQVTHSEHKVKNNIA | EMVTREK | QQYDRLPLS | 0.25 / 0.25 / -0.16 / 0.09 / 0.45 / 0.39 | 0.21 | 0/18
NISQMIFMETKNVNNVA | QTTTREE | QDYHRLPLS | 0.55 / 0.31 / 0.37 / 0.38 / 0.31 / 0.55 | 0.41 | 0/18
KLREQSHVESKQKNNVA | DNSTRES | QDYHRLPLS | n.d. / n.d. / 3.40 / n.d. / n.d. / 2.24 | 2.82 | 1/18 (2.43)
KIGLVTNGISFSKNNVA | EQSTREN | QQYDRLPLS | 1.05 / 1.15 / 0.64 / 0.70 / 0.52 / 0.81 | 0.81 | 1/18 (4.00)
KLLQEVTGHRRNRNSVA | HNSTRED | QQYDRLPLS | n.d. / n.d. / n.d. / n.d. / n.d. / n.d. | n.d. | 1/18 (2.60)
KISMMYRYEQQNHSSIA | EANTREQ | QSYHRLPLS | 1.39 / 1.13 / 1.36 / 1.97 / 1.67 / 1.43 | 1.49 | 1/18 (3.26)
MISQSFLIGMKAKNSVA | QTNTREE | QQYDRLPLM | 0.30 / 0.21 / 0.31 / -0.06 / 0.16 / 0.25 | 0.20 | 1/18 (3.12)
KLYFNVGTLAHNTQSIA | DMERRED | QQYHRLPLS | 0.04 / -0.01 / -0.03 / -0.11 / 0.09 / 0.07 | 0.01 | 1/18 (2.79)
KLYQSVGTMSHNKQSIA | DMERRED | QQYHRLPLS | 0.16 / -0.39 / 0.14 / 0.10 / -0.06 / 0.11 | 0.01 | 2/18 (2.54)
ALGDVTRMESNKKNSIA | DMSNRES | QQYHRLPLS | 0.87 / 1.86 / 1.30 / 1.47 / 0.99 / 0.77 | 1.21 | 0/18
MFSQLFMYGSRNYNSVA | QASTREK | QQYDRLPLI | 1.42 / n.d. / n.d. / 2.10 / 1.10 / n.d. | 1.54 | 1/18 (1.51)
IISQVDAYESRNKQSIA | DQSTRGS | QQYDRLPLS | 0.39 / 0.78 / 0.62 / 0.36 / 0.58 / 0.67 | 0.57 | 2/18 (2.79)
KLSQLFYKESKNKNNVA | EMTTRGQ | QQYDRLPLS | 0.50 / 0.30 / -0.12 / 0.22 / 0.06 / 0.02 | 0.16 | 1/18 (1.10)
KLSMSMLMESFHKNNVA | ENSTREE | QHYHRLPLS | n.d. / n.d. / n.d. / n.d. / 3.64 / n.d. | 3.64 | 1/18 (2.98)

The authors' rule: three or more of the six replicates give a measured affinity, fewer mean a poor binder.
The parent sequence was in this pool as ten entries: three were never detected, three once, and four in most replicates, with averages from 0.34 to 2.37.
The range of this assay differs from that of the first round, and the authors advise against merging the two.